The test has as its system Staphylococcus aureus. To be noted: ATCC 25923.

For GENTAMICIN, the lowest concentration to inhibit growth (MIC) was 0.5 µg/mL.

The values above are taken from ChEMBL document CHEMBL3774373, “Activity and Predicted Nephrotoxicity of Synthetic Antibiotics Based on Polymyxin B” (J Med Chem, 2016).
